These are literature values, as cited in publication PMC11544004.

Amino acid sequences for entries named in this document (tags omitted). Residues count along the entry.
UniProt P42081, 24-247: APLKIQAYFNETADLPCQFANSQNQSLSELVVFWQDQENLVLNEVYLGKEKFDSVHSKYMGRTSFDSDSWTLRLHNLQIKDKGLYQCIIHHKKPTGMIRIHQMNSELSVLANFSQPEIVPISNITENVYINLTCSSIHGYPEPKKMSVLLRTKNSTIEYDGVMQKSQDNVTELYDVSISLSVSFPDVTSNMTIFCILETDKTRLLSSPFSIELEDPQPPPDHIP

For data set [1], the target named is CD86 (Homo sapiens) (UniProt P42081).
In data set [2] the target is CD80 (Homo sapiens) (UniProt P33681).

For the substance CTLA-4 (from UniProt P16410), the Kd (as a rule, the free concentration of one partner at which half of the binding sites on the other are occupied at equilibrium, for simple one-to-one binding) is 2000 nM in data set [1] and 460 nM in data set [2].
